# This is a sample that favours compounds with a hit; in the whole collection about 2.8% have one here.
# miR-122 sensor: miR-122 Renilla sensor signal increase in Huh7, primary screen, miR-122 inhibitor project, cell-based, single point, plate reader | Huh7 miR-122 Renilla luciferase sensor, 48 h; neutral wells = 0, positive control = 100 | AID 602342, 2012 | 340,000 tested, 0.3% active | activation (reporter increase), % at 12.5 µM;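 active = mean replicate activation score at least 90 and every replicate individually at or above 90; inconclusive = only one of the two criteria met; inactive = neither criterion met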;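 also: higher luciferase means less miR-122 activity so hits act as miR-122 inhibitors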
# UUG fidelity: alters start codon recognition fidelity in yeast. S. cerevisiae UUG-firefly luciferase reporter, luminescence/redox ratio. 350,000 tested, 0.13% active. activity score, % at 18.7 µM. AID 602363;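 active means replicate mean at a twofold rise or more, about +100% in these data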;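 further: firefly luciferase made from a UUG start codon reports start codon fidelity; reporter light over untreated wells divided by growth signal over untreated wells; some hits fall short of that in this replicate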
# MITF act: activators of MITF-driven TRPM1 promoter reporter, primary screen, cell-based, SK-MEL-5, luciferase, single point. 300,000 tested, 0.75% active. activation, % at 12.5 µM. SK-MEL-5 TRPM1-promoter luciferase, 24 h; % of positive control, neutral wells = 0;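 active = mean activation of at least 80% with every replicate also reaching 80%; inconclusive = mean reaches 80% but some replicate falls short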;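 also: 0% = neutral control wells and 100% = parthenolide positive control wells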
# Wnt bcat act: Wnt/beta-catenin pathway activators, primary screen, cell-based, plate reader, single point. AID 743398, 2014. activation, % at 9.35 µM. Wnt/beta-catenin reporter cell assay, activator. 300,000 tested, 1.2% active; in the data active = activation above about 30%, passing the limit was not always enough; inconclusive = no clear call, values can overlap the other calls;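 also: 0% = neutral control wells and 100% = positive control wells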
# esBAF inh: Bmi1 luciferase reporter increase in mESCs, primary screen, esBAF inhibitor project, mouse ES cells, Bmi1 luciferase knock-in, single point; 24 h; 100% = twice the neutral-well signal; 350,000 tested, 2% active; reporter increase, % at 12.5 µM; in the data active = activation above about 40%; inconclusive = no clear call, values can overlap the other calls;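 also: 0% = median of the plate's neutral control wells and 100% = double that signal; a rise in the Bmi1 reporter signal indicates esBAF inhibition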
# PglD DTNB: C. jejuni PglD acetyltransferase inhibitors, primary screen, biochemical, DTNB colorimetric, single point. AID 602405, 2012. 360,000 tested, 0.098% active. inhibition, % at 12.5 µM. purified PglD enzyme, DTNB colorimetric CoA detection; in the data active = inhibition above about 16%, passing the limit was not always enough; inconclusive = no clear call, values can overlap the other calls
# The depositor's hits bear a star; ? = inconclusive; · = no result given; [ ] = dose if it differs, or a comment.
# The line under a structure holds: MITF act, PglD DTNB, esBAF inh, miR-122 sensor, Wnt bcat act, UUG fidelity
1. Cc1cc(-c2nc(-c3ccc(C(C)(C)C)cc3)no2)no1
→ 100.3*, 2.1, 61.8*, ·, 2.6, -16.7
2. C[C@H](CO)N1C[C@H](C)[C@H](CN(C)CC2CCCCC2)Oc2ccc(NC(=O)Nc3ccc(F)cc3)cc2C1=O
→ ·, 6.0, -4.7, -6.1[16.7 µM], ·, 19.3
3. C[C@@H]1CN([C@@H](C)CO)C(=O)c2cc(NC(=O)Nc3ccc(F)cc3)ccc2O[C@@H]1CN(C)CC1CCCCC1
→ ·, 17.1*, 3.0, 12.8[16.7 µM], ·, 40.0
4. C[C@H]1CN([C@@H](C)CO)C(=O)c2cc(NC(=O)NC3CCCCC3)ccc2O[C@H]1CN(C)C(=O)Nc1ccccc1
→ ·, 4.6, 4.8, 4.8[16.7 µM], ·, 15.2
5. C[C@H]1CN([C@@H](C)CO)C(=O)c2cc(NC(=O)NC3CCCCC3)ccc2O[C@@H]1CN(C)C(=O)Nc1ccccc1
→ ·, 6.1, -7.9, 93.4*[16.7 µM], ·, 15.1
6. CC(C)NC(=O)N(C)C[C@H]1Oc2ccc(NC(=O)Nc3ccccc3)cc2C(=O)N([C@H](C)CO)C[C@@H]1C
→ -1.6, 2.0, -5.6, -4.4, 36.4*, -24.6
7. Cc1ccccc1-c1cnc2c(c1)C(=O)N([C@@H](C)CO)C[C@@H](C)[C@@H](CN(C)Cc1cccnc1)O2
→ ·, -3.3, -1.6, -1.9[16.7 µM], ·, -0.2
8. O=C(C[C@H]1CC[C@H]2[C@@H](COC[C@H](O)CN2C(=O)c2ccccc2F)O1)NCc1ccc(F)cc1
→ ·, -1.7, -1.4, 3.0[16.7 µM], ·, 4.0
9. Cc1noc(C)c1S(=O)(=O)Nc1ccc2c(c1)CC(=O)N([C@@H](C)CO)C[C@@H](C)[C@H](CN(C)S(=O)(=O)c1ccc(Cl)cc1)O2
→ ·, 0.0, 5.1, -5.4[16.7 µM], ·, -4.1
10. COc1cccc(CNC(=O)C[C@H]2C=C[C@H](NC(=O)C3CC3)[C@@H](CO)O2)c1
→ ·, 3.4, 3.6, ·, ·, -7.4

# New compounds follow
# The line under a structure holds: MITF act, PglD DTNB, esBAF inh, miR-122 sensor, Wnt bcat act, UUG fidelity
11. O=C(N/N=C/c1ccc2cccnc2c1)c1nc2ccccc2c(=O)[nH]1
→ 66.5, -3.8, 45.8*, 1.8, 0.1, -10.7
12. O=C(N/N=C/c1ccncc1)c1nc2ccccc2c(=O)[nH]1
→ 31.9, ·, ·, ·, 21.1, ·
13. COc1cccc(-c2ccc3n(c2=O)C[C@H]2[C@H](CO)[C@@H](C(=O)NC4CCC4)[C@@H]3N2C)c1
→ ·, 6.4, 0.4, -3.2[16.7 µM], ·, -4.9
14. CCOC(=O)c1cc2c(nc1N)CCCC2
→ 7.0, ·, ·, ·, 7.5, ·
15. CCOC(=O)c1oc2nc3c(cc2c1N)COC(C)(C)C3
→ 59.1, ·, 4.2, -1.5, 49.1*, 18.7
16. CCOC(=O)c1oc2nc3c(cc2c1N)CCCC3
→ ·, -12.3, 31.6, -4.3, 37.3*, -5.8
17. CO[C@H]1CN(C)C(=O)c2cc(NC(C)=O)ccc2OC[C@H](C)N(C(=O)c2ccc(F)cc2)C[C@H]1C
→ ·, 1.6, -1.0, ·, ·, ·
18. CCC(=O)N(C)C[C@H]1Oc2cc(C3=CCCC3)ccc2S(=O)(=O)N([C@H](C)CO)C[C@@H]1C
→ ·, 1.4, 1.9, -1.8[16.7 µM], ·, 3.9
19. C=C(CCC(=O)c1ccccc1)C(=O)c1ccccc1
→ -5.2, ·, ·, ·, 59.8*, ·
20. Cc1ccc(N=Cc2sc(O)c3ccccc23)cc1
→ ·, 4.4, 94.4*, 4.2, 84.1*, 8.2

# (list continues)
# The line under a structure holds: MITF act, PglD DTNB, esBAF inh, miR-122 sensor, Wnt bcat act, UUG fidelity
21. Cc1ccc(N=Cc2sc(O)c3ccccc23)c(C)c1
→ ·, ·, 74.4*, -0.7, 0.0, ·
22. Cc1ccc(N=Cc2cccc(O)c2O)c(C)c1
→ ·, -4.0, 0.3, -7.2, 13.0, 2.5
23. CO[C@@H]1CN(C)C(=O)c2ccc(NC(C)=O)cc2OC[C@@H](C)N(C(=O)CC2CC2)C[C@H]1C
→ ·, 12.3, 0.9, -15.0[16.7 µM], ·, -17.4
24. Cc1c(Cl)cccc1NC(=O)CCCN1C(=O)c2cccnc2C1=O
→ 8.2, -5.1, 4.6, -13.5, 33.8*, -53.6
25. O=C(c1cc(-c2ccc(F)cc2)on1)N1CCCCCC1
→ 138.1*, 4.9, 22.1, -5.2, -4.3, -20.5
26. O=C(c1cc(-c2ccccc2)on1)N1CCCCCC1
→ 140.7*, -3.1, 55.1*, -0.6, 37.1*, -22.0
27. COc1ccc(-c2cc(C(=O)N3CCCCCC3)no2)cc1OC
→ ·, -6.6, 70.5*, 12.6, 17.3, -1.6
28. COc1ccc(-c2cc(C(=O)N3CCCCCC3)no2)cc1
→ 41.9, 0.8, -9.3, 6.7, -1.9, -36.2
29. COc1cccc(-c2cc(C(=O)N3CCCCCC3)no2)c1
→ ·, -4.4, -20.9, ·, 41.0*, -47.6
30. Cc1ccc(-c2cc(C(=O)N3CCCCCC3)no2)cc1
→ 73.5, 1.8, -5.1, -1.3, ?, -31.6

# Continued.
# The line under a structure holds: MITF act, PglD DTNB, esBAF inh, miR-122 sensor, Wnt bcat act, UUG fidelity
31. CCC(=O)N[C@H]1CC[C@H](CC(=O)NCc2ccccc2OC)O[C@@H]1CO
→ ·, 0.5, -4.4, ·, ·, -14.7
32. CO[C@@H]1CN(C)C(=O)c2cc(NS(C)(=O)=O)ccc2OC[C@H](C)N(Cc2ccccc2)C[C@@H]1C
→ ·, -7.1, -4.1, 25.7[16.7 µM], ·, 1.4
33. CCCN1[C@@H]2c3ccc(-c4cncnc4)c(=O)n3C[C@@H]2[C@@H](CO)[C@@H]1C(=O)OC
→ ·, 1.8, -2.8, ·, ·, ·
34. CN1C(=O)c2cc(NS(=O)(=O)c3ccccc3F)ccc2OC[C@@H]2O[C@H](CC(=O)NC3Cc4ccccc4C3)CC[C@H]21
→ ·, 0.2, 9.9, ·, ·, ·
35. O=C(c1cc(-c2cccc(O)c2)on1)N1CCCCC1
→ 53.5, 2.0, -16.6, 7.4, 40.3*, -43.9
36. C[C@@H]1CCCCO[C@@H](CN(C)S(=O)(=O)c2cn(C)cn2)[C@H](C)CN([C@@H](C)CO)C(=O)c2cc(NS(=O)(=O)c3cccs3)ccc2O1
→ ·, 1.4, 3.1, 4.6[16.7 µM], ·, 35.4
37. Nc1[nH]n(-c2ccccc2)c(=O)c1N=Nc1ccc2c(c1)OCCO2
→ 61.1, 1.4, -7.3, -11.0, 34.4*, -39.9
38. Nc1[nH]n(-c2ccccc2)c(=O)c1N=Nc1ccc2c(c1)OCO2
→ 77.1, 0.8, 33.3, -2.6, 58.2*, -10.4
39. COc1ccc(CN(C)C[C@H]2Oc3c(NS(=O)(=O)c4cn(C)cn4)cccc3C(=O)N([C@H](C)CO)C[C@H]2C)cc1
→ ·, -1.8, 0.0, -1.3[16.7 µM], ·, 2.3
40. CC(=O)N1[C@@H]2c3ccc(-c4cccnc4)c(=O)n3C[C@H]1[C@H](CO)[C@H]2C(=O)N1CCc2ccccc2C1
→ ·, 0.1, 3.6, ·, ·, ·

# 5 compounds already listed, sorted by their value in PglD DTNB, lowest first.
no. | molecule | MITF act | PglD DTNB | esBAF inh | miR-122 sensor | Wnt bcat act | UUG fidelity
32 | CO[C@@H]1CN(C)C(=O)c2cc(NS(C)(=O)=O)ccc2OC[C@H](C)N(Cc2ccccc2)C[C@@H]1C | · | -7.1 | -4.1 | 25.7[16.7 µM] | · | 1.4
39 | COc1ccc(CN(C)C[C@H]2Oc3c(NS(=O)(=O)c4cn(C)cn4)cccc3C(=O)N([C@H](C)CO)C[C@H]2C)cc1 | · | -1.8 | 0.0 | -1.3[16.7 µM] | · | 2.3
31 | CCC(=O)N[C@H]1CC[C@H](CC(=O)NCc2ccccc2OC)O[C@@H]1CO | · | 0.5 | -4.4 | · | · | -14.7
38 | Nc1[nH]n(-c2ccccc2)c(=O)c1N=Nc1ccc2c(c1)OCO2 | 77.1 | 0.8 | 33.3 | -2.6 | 58.2* | -10.4
37 | Nc1[nH]n(-c2ccccc2)c(=O)c1N=Nc1ccc2c(c1)OCCO2 | 61.1 | 1.4 | -7.3 | -11.0 | 34.4* | -39.9

# Next section.
# The line under a structure holds: MITF act, PglD DTNB, esBAF inh, miR-122 sensor, Wnt bcat act, UUG fidelity
41. CO[C@H]1CN(C)C(=O)c2cc(NS(C)(=O)=O)ccc2OC[C@@H](C)N(Cc2nccs2)C[C@@H]1C
→ ·, 2.0, -2.8, -0.4[16.7 µM], ·, -0.9
42. CN1CCN(C(=O)c2cc(COc3ccccc3)on2)[C@@H](c2ccccc2)C1
→ 91.0*, -1.7, 63.8*, ·, 42.4*, -10.4
43. Cc1ccc(OCc2cc(C(=O)N3CCN(C)C[C@@H]3c3ccccc3)no2)cc1C
→ 113.0*, 5.0, ·, -6.9, -0.5, 0.7
44. Cc1noc(C)c1NC(=O)N(C)C[C@H]1Oc2ccc(NS(=O)(=O)c3ccc(F)cc3)cc2C(=O)N([C@H](C)CO)C[C@H]1C
→ ·, -0.9, -1.1, -16.4[16.7 µM], ·, -18.0
